Data as given in patent publication US20060104902A1, “Method of preselection patients for anti-VEGF, anti-HIF-1 or anti-thioredoxin therapy” (priority 2004, published 2006).

How the values were obtained:
HT-29 tumor xenografts [1] = assay: DCE-MRI with Gd-BSA: tumor vascular permeability and vascular volume fraction; assay type: in vivo, SCID mice; settings: for vascular volume fraction VVf (%): HT-29, mean
HIF-1α and VEGF = settings: previous studies; cited from earlier work
HT-29 tumor xenografts [2] = assay: DW-MRI of tumor water diffusion (ADCw); settings: PX-478 125 mg/kg i.p.
[3] = system: A-549 non small cell lung cancer xenografts; assay: Antitumor study, tumor xenograft growth; settings: PX-478 100 mg/kg ip daily for 5 days
[4] = system: HT-29 human colon cancer xenografts; assay: Antitumor study, tumor xenograft growth; settings: PX-478 80 mg/kg ip daily for 5 days
A-549 tumor = assay: DCE-MRI with Gd-BSA: tumor vascular permeability and vascular volume fraction (negative control tumor)

NC(Cc1ccc([N+]([O-])(CCCl)CCCl)cc1)C(=O)O (centres unmarked)
vascular volume fraction VVf (%) (HT-29 tumor xenografts [1]; 2 h post-Tx): 7.5% | vascular volume fraction VVf (%) (HT-29 tumor xenografts [1]; 12 h post-Tx): 5.7% | mean reduction in permeability (HT-29 tumor xenografts [1]; 24 hours post-treatment, PX-478 125 mg/kg i.p.): 55.0% | vascular volume fraction VVf (%) (HT-29 tumor xenografts [1]; 24 h post-Tx): 6.6% | change in permeability (return to control values) (HT-29 tumor xenografts [1]; 48 hours, PX-478 125 mg/kg i.p., not significant): +3.9% | vascular volume fraction VVf (%) (HT-29 tumor xenografts [1]; 48 h post-Tx): 6.6% | decrease in permeability (HT-29 tumor xenografts [1]; about 12 hours after PX-478 125 mg/kg i.p.): about 72.4% | vascular volume fraction of the tumor, control vs treated (HT-29 tumor xenografts [1]; any time point (2-48 h), PX-478 125 mg/kg i.p.): not significantly modified | mean reduction in tumor blood vessel permeability compared to control tumors (HT-29 tumor xenografts [1]; within 2 hours after PX-478 125 mg/kg i.p.): 73.3% | HIF-1α and VEGF levels in HT-29 tumors, onset of decrease (HIF-1α and VEGF): decreased within two hours | HIF-1α and VEGF levels in HT-29 tumors, recovery (HIF-1α and VEGF): returned to control values by 8 hours | increase in mean relative tumor ADCw (HT-29 tumor xenografts [2]; 24 hours post-treatment, treated vs control): +94.5% | increase in mean relative tumor ADCw (HT-29 tumor xenografts [2]; 36 hours post-treatment): +38.4% | change in mean tumor ADCw (HT-29 tumor xenografts [2]; 48 h post-treatment, non significant): +2.5% | ADCw values, control vs treated groups (HT-29 tumor xenografts [2]; early time points (2 and 12 h)): not significantly different | growth inhibition [3]: no growth inhibition | calculated log cell kill [4]: 1.6 | tumor growth delay [4]: 16 days | vascular volume fraction VVf (%) (A-549 tumor; 2 h post-Tx, A-549, mean): 6.0% | change in vascular volume fraction (A-549 tumor; two hours after PX-478 125 mg/kg i.p.): No significant change
